Literature values in PubChem BioAssay AID977611.

Key:
Assay in all cases: PubChem AID 977611
[1] = target: HTH-type transcriptional regulator qacR, QacR E90Q; details: PDB protein-ligand complexes, literature Kd; protein: HTH-type transcriptional regulator qacR, QacR E90Q; PDB entry 3PM1
[2] = target: PROBABLE TRANSCRIPTIONAL REGULATORY PROTEIN (PROBABLY DEOR-FAMILY); details: PDB protein-ligand complexes, literature Kd; protein: PROBABLE TRANSCRIPTIONAL REGULATORY PROTEIN (PROBABLY DEOR-FAMILY); PDB entry 3V78
[3] = target: Aplysia californica acetylcholine-binding protein (AChBP); details: PDB protein-ligand complexes, literature Kd; protein: Aplysia californica acetylcholine-binding protein (AChBP); PDB entry 4AFT
RNA polymerase = details: PDB protein-ligand complexes, literature Kd; protein: RNA polymerase; PDB entry 3SFG
[4] = target: Apis mellifera Odorant-Binding Proteins (OBP14); details: PDB protein-ligand complexes, literature Kd; protein: Apis mellifera Odorant-Binding Proteins (OBP14); PDB entry 3S0E
[5] = target: Poly [ADP-ribose] polymerase 14; details: PDB protein-ligand complexes, literature Kd; protein: Poly [ADP-ribose] polymerase 14; PDB entry 4F1Q
[6] = target: Fermitin family homolog 2; details: PDB protein-ligand complexes, literature Kd; protein: Fermitin family homolog 2; PDB entry 2LKO
bruton's tyrosine kinase = details: PDB protein-ligand complexes, literature Kd; protein: bruton's tyrosine kinase; PDB entry 1BWN
[7] = target: dual adaptor of phosphotyrosine and 3 phosphoinositides; details: PDB protein-ligand complexes, literature Kd; protein: dual adaptor of phosphotyrosine and 3 phosphoinositides; PDB entry 1FAO
tyrosine kinase btk = details: PDB protein-ligand complexes, literature Kd; protein: tyrosine kinase btk; PDB entry 1B55
maltoporin = details: PDB protein-ligand complexes, literature Kd; protein: maltoporin; PDB entry 1AF6
sucrose-specific porin = details: PDB protein-ligand complexes, literature Kd; protein: sucrose-specific porin; PDB entry 1A0T
R7-2 streptavidin = details: PDB protein-ligand complexes, literature Kd; protein: R7-2 streptavidin; PDB entry 3RDQ
[8] = target: Peptidyl-prolyl cis-trans isomerase NIMA-interacting 1; details: PDB protein-ligand complexes, literature Kd; protein: Peptidyl-prolyl cis-trans isomerase NIMA-interacting 1; PDB entry 3TC5
[9] = target: nadph-flavin oxidoreductase; details: PDB protein-ligand complexes, literature Kd; protein: nadph-flavin oxidoreductase; PDB entry 1BKJ
[10] = target: TetR-like transcriptional repressor LfrR from Mycobacterium smegmatis; details: PDB protein-ligand complexes, literature Kd; protein: TetR-like transcriptional repressor LfrR from Mycobacterium smegmatis; PDB entry 2V57
thrombin alpha = details: PDB protein-ligand complexes, literature Kd; protein: thrombin alpha; PDB entry 1BCU
[11] = target: transcriptional regulator qacr; details: PDB protein-ligand complexes, literature Kd, protein: transcriptional regulator qacr
[12] = target: maltose-binding periplasmic protein; details: PDB protein-ligand complexes, literature Kd; protein: maltose-binding periplasmic protein; PDB entry 1EZ9
[13] = target: Enantio-pyochelin receptor; details: PDB protein-ligand complexes, literature Kd; protein: Enantio-pyochelin receptor; PDB entry 3QLB
[14] = target: Mevalonate diphosphate decarboxylase; details: PDB protein-ligand complexes, literature Kd; protein: Mevalonate diphosphate decarboxylase; PDB entry 3QT7
[15] = target: Outer membrane protein omp38; details: PDB protein-ligand complexes, literature Kd; protein: Outer membrane protein omp38; PDB entry 3TD4
[16] = target: Phosphoethanolamine N-methyltransferase H132A mutant; details: PDB protein-ligand complexes, literature Kd; protein: Phosphoethanolamine N-methyltransferase H132A mutant; PDB entry 3UJC
[17] = target: Phosphoethanolamine N-methyltransferase Y19F mutant; details: PDB protein-ligand complexes, literature Kd; protein: Phosphoethanolamine N-methyltransferase Y19F mutant; PDB entry 3UJD
[18] = target: Phosphoethanolamine N-methyltransferase; details: PDB protein-ligand complexes, literature Kd; protein: Phosphoethanolamine N-methyltransferase; PDB entry 3UJ9
[19] = target: fk506 binding protein (fkbp); details: PDB protein-ligand complexes, literature Kd; protein: fk506 binding protein (fkbp); PDB entry 1F40
[20] = target: C-terminal effector-binding domain of CggR; details: PDB protein-ligand complexes, literature Kd; protein: C-terminal effector-binding domain of CggR; PDB entry 3BXE
[21] = target: fructose 1,6-bisphosphate aldolase; details: PDB protein-ligand complexes, literature Kd; protein: fructose 1,6-bisphosphate aldolase; PDB entry 1ADO
GLUCOSYLTRANSFERASE = details: PDB protein-ligand complexes, literature Kd; protein: GLUCOSYLTRANSFERASE; PDB entry 2WZF
[22] = target: Human O-GlcNAc transferase (OGT); details: PDB protein-ligand complexes, literature Kd; protein: Human O-GlcNAc transferase (OGT); PDB entry 4AY5
Toxin A = details: PDB protein-ligand complexes, literature Kd; protein: Toxin A; PDB entry 4DMW
Acetyl-CoA carboxylase = details: PDB protein-ligand complexes, literature Kd; protein: Acetyl-CoA carboxylase; PDB entry 3TV5
[23] = target: HIV-1 clade C1086 gp120 core; details: PDB protein-ligand complexes, literature Kd; protein: HIV-1 clade C1086 gp120 core; PDB entry 3TGS
[24] = target: Polyamine transport protein; details: PDB protein-ligand complexes, literature Kd; protein: Polyamine transport protein; PDB entry 3TTM
[25] = target: putrescine-binding protein; details: PDB protein-ligand complexes, literature Kd; protein: putrescine-binding protein; PDB entry 1A99
[26] = target: SN-GLYCEROL-3-PHOSPHATE-BINDING PERIPLASMIC PROTEIN UGPB; details: PDB protein-ligand complexes, literature Kd; protein: SN-GLYCEROL-3-PHOSPHATE-BINDING PERIPLASMIC PROTEIN UGPB; PDB entry 4AQ4
lectin = details: PDB protein-ligand complexes, literature Kd; protein: lectin; PDB entry 1AX2
GTPase KRas, isoform 2B = details: PDB protein-ligand complexes, literature Kd; protein: GTPase KRas, isoform 2B; PDB entry 4DSU
apoferritin = details: PDB protein-ligand complexes, literature Kd; protein: apoferritin; PDB entry 3U90
[27] = target: N-terminal domain of RSK2 kinase; details: PDB protein-ligand complexes, literature Kd; protein: N-terminal domain of RSK2 kinase; PDB entry 3UBD
[28] = target: Transporter(F253A mutant); details: PDB protein-ligand complexes, literature Kd; protein: Transporter(F253A mutant); PDB entry 4FXZ
Transporter = details: PDB protein-ligand complexes, literature Kd, protein: Transporter
[29] = target: fatty acid-binding protein; details: PDB protein-ligand complexes, literature Kd; protein: fatty acid-binding protein; PDB entry 1FDQ

Compound: CCN1c2cc(N)ccc2-c2ccc(N)cc2C1c1ccccc1 (stereo not given)
- Kd [1]: 1.18 µM
- Kd [2]: 2.9 µM

Compound: c1cnc2cc3c(cc2n1)[C@@H]1CNC[C@H]3C1
- Kd [3]: 0.342 µM

Compound: O=c1ccn([C@@H]2O[C@H](CO)[C@@H](O)[C@H]2O)c(=S)[nH]1
- Kd (RNA polymerase): 0.865 µM

Compound: C=CCc1ccc(O)c(OC)c1
- Kd [4]: 0.28 µM

Compound: NC(=O)c1cccc(NC(=O)CCC(=O)O)c1
- Kd [5]: 11.2 µM

Compound: O=P(O)(O)OC1[C@H](O)[C@H](OP(=O)(O)O)C(OP(=O)(O)O)[C@H](OP(=O)(O)O)[C@H]1O (stereo not given in full)
- Kd [6]: 2.12 µM
- Kd (bruton's tyrosine kinase): 0.087 µM
- Kd [7]: 0.043 µM
- Kd (tyrosine kinase btk): 0.04 µM

Compound: OC[C@H]1O[C@@](CO)(O[C@H]2O[C@H](CO)[C@@H](O)[C@H](O)[C@H]2O)[C@@H](O)[C@@H]1O
- Kd (maltoporin): 15000 µM
- Kd (sucrose-specific porin): 50000 µM

Compound: C[C@@H]1NC(=O)N[C@@H]1CCCCCC(=O)O
- Kd (R7-2 streptavidin): 0.00049 µM

Compound: C[C@@H]1C[C@H]2[C@@H]3CCC4=CC(=O)C=C[C@]4(C)[C@@]3(F)[C@@H](O)C[C@]2(C)[C@@]1(O)C(=O)COP(=O)(O)O
- Kd [8]: 6.8 µM

Compound: Cc1cc2nc3c(=O)[nH]c(=O)nc-3n(CC(O)[C@H](O)[C@H](O)COP(=O)(O)O)c2cc1C (stereo not given in full)
- Kd [9]: 0.17 µM

Compound: Nc1ccc2cc3ccc(N)cc3nc2c1
- Kd [10]: 0.079 µM
- Kd (thrombin alpha): 530 µM
- Kd ([11]; PDB entry 1QVT): 42 µM
- Kd ([11]; PDB entry 1QVU): 35 µM

Compound: OC[C@@H](O)[C@@H](O[C@H]1O[C@H](CO)[C@@H](O[C@H]2O[C@H](CO)[C@@H](O[C@H]3O[C@H](CO)[C@@H](O)[C@H](O)[C@H]3O)[C@H](O)[C@H]2O)[C@H](O)[C@H]1O)[C@H](O)[C@@H](O)CO
- Kd [12]: 8 µM

Compound: O=C([O-])CC(O)(CC(=O)[O-])C(=O)[O-].[CH2-][NH+]1[C@@H](C(=O)[O-])CS[C@H]1[C@@H]1CSC(c2ccccc2O)=N1.[Fe] (stereo not given in full)
- Kd [13]: 0.0037 µM

Compound: O=C(O)C[C@@](O)(CF)CCOP(=O)(O)OP(=O)(O)O
- Kd [14]: 0.049 µM

Compound: N[C@H](CCC[C@H](N)C(=O)O)C(=O)O
- Kd [15]: 2.2 µM

Compound: C[N+](C)(C)CCOP(=O)([O-])O
- Kd [16]: 26 µM
- Kd [17]: 20.2 µM
- Kd [18]: 23.4 µM

Compound: CCC(C)(C)C(=O)C(=O)N1CCC[C@H]1C(=O)OCCCc1cccnc1
- Kd [19]: 1 µM

Compound: O=C(CO)COP(=O)(O)O
- Kd [20]: 3.34 µM
- Kd [21]: 1 µM

Compound: O=c1ccn([C@@H]2O[C@H](COP(=O)(O)OP(=O)(O)O)[C@@H](O)[C@H]2O)c(=O)[nH]1
- Kd (GLUCOSYLTRANSFERASE): 0.1 µM
- Kd [22]: 0.54 µM
- Kd (Toxin A): 11.4 µM

Compound: O=C(c1c2ccccc2cc2ccccc12)N1CCC(N2CCC[C@@H](C(=O)N3CCOCC3)C2)CC1
- Kd (Acetyl-CoA carboxylase): 4.8 µM

Compound: CC1(C)CC(NC(=O)C(=O)Nc2ccc(Cl)cc2)CC(C)(C)N1
- Kd [23]: 4.1 µM

Compound: NCCCCN
- Kd [24]: 0.003 µM
- Kd [25]: 2 µM

Compound: O=P(O)(O)OC[C@H](O)CO
- Kd [26]: 0.68 µM

Compound: CC(=O)N[C@@H]1[C@@H](O)[C@H](O[C@@H]2O[C@H](CO)[C@H](O)[C@H](O)[C@H]2O)[C@@H](CO)O[C@@H]1O
- Kd (lectin): 103 µM

Compound: c1ccc2[nH]cnc2c1
- Kd (GTPase KRas, isoform 2B): 1500 µM

Compound: CCCCCCCCCCCCOS(=O)(=O)O
- Kd (apoferritin): 24 µM

Compound: CC(=O)O[C@@H]1[C@@H](OC(C)=O)[C@@H](O)[C@H](Oc2c(-c3ccc(O)cc3)oc3cc(O)cc(O)c3c2=O)O[C@H]1C
- Kd [27]: 2.9 µM

Compound: CC(C)C[C@H](N)C(=O)O
- Kd [28]: 0.0943 µM
- Kd (Transporter; PDB entry 3F3E): 0.02 µM
- Kd (Transporter; PDB entry 3GJD): 0.0468 µM

Compound: CC/C=C\C/C=C\C/C=C\C/C=C\C/C=C\C/C=C\CCC(=O)O
- Kd [29]: 0.0534 µM
